This is an account of results in patent US20250213563A1, “SUBSTITUTED PYRIMIDIN-4(3H)-ONES FOR USE IN TREATING CANCER” (NAVIRE PHARMA, INC., priority 2021, published 2025).

Sequences of proteins named here, by UniProt entry; tags and fusion partners are left off. A change or cut given only in a name is not applied to a line headed by its entry.
UniProt Q12809: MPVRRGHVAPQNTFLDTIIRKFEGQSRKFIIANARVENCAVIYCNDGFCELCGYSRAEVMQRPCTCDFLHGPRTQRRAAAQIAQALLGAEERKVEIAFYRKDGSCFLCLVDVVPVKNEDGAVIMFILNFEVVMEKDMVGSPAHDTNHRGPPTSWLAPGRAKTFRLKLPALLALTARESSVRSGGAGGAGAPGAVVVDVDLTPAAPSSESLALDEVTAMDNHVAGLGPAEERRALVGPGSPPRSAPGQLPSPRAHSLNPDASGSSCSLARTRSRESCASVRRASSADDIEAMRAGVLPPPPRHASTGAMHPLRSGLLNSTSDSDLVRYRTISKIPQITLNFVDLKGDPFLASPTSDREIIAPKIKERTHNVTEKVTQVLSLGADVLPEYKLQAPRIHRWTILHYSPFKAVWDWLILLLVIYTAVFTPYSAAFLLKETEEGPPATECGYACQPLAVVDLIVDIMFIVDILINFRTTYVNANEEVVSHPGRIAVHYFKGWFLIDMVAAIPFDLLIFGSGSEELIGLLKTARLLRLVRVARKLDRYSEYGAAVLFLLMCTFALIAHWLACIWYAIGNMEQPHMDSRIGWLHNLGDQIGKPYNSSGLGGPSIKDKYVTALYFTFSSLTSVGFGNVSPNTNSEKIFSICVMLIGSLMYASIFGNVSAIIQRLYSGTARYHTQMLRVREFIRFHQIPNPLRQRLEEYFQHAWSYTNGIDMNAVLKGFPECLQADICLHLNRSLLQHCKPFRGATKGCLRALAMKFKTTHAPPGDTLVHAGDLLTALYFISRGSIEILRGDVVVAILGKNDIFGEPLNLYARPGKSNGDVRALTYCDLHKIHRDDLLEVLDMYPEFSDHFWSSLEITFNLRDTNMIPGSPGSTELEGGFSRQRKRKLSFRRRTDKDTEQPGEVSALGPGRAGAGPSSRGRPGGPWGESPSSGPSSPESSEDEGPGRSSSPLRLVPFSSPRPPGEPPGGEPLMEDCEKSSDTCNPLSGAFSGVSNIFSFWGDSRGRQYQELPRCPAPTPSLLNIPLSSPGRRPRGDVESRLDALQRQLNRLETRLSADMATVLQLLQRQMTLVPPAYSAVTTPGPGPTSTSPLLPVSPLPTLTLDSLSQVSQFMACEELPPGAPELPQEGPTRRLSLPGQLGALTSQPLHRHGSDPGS

SMILES strings stand for the structures.

This series deals with hERG potassium channel (Homo sapiens, UniProt Q12809). Particulars: 0.1 μM.

Take `COc1cc(N)c(Cl)cc1C(=O)NC1CCN(CCCOc2ccc(F)cc2)CC1OC` (stereo not shown) [cisapride]: the “inhibition of hERG current” value is reported as over 50%.
